Values of other authors, collected in US10456404B2, “Targeting cGMP-related phosphodiesterases to reduce cyst formation in cystic kidney disease, and related materials and methods” (Indiana University Research and Technology Corporation, priority 2015, dated 2019).

Sequences of proteins named here, by UniProt entry; tags and fusion partners are left off. A change or cut given only in a name is not applied to a line headed by its entry.
UniProt O70628: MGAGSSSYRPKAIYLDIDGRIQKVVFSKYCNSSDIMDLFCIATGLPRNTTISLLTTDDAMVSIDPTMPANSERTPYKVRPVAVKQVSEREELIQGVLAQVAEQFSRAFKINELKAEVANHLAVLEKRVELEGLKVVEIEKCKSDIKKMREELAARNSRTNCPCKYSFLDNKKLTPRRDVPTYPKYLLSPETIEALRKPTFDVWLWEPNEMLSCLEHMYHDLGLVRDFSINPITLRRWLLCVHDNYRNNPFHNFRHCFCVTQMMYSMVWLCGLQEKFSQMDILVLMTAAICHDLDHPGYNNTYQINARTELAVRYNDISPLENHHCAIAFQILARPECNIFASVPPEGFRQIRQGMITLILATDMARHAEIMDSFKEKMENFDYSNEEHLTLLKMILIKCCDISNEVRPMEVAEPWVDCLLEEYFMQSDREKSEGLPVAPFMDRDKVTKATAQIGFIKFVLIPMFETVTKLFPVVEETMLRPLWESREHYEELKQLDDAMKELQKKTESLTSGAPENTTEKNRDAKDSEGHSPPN

Biological target: murine PDE9 (Mus musculus, UniProt O70628)
Details: cited from earlier work

Structure (SMILES): C[C@H](Cc1nc2c(cnn2-c2ccccc2Cl)c(=O)[nH]1)C(F)(F)F [BAY 73-6691, 1-(2-chlorophenyl)-6-[(2R)-3,3,3-trifluoro-2-methylpropyl]-1,5-dihydro-4H-pyrazolo[3,4-d]pyrimidine-4-one]
- inhibition of murine PDE9 activity in vitro: selectively inhibit
